Results reported in patent US20250357519A1, “APPLICATIONS OF O2-INSENSITIVE FORMATE DEHYDROGENASE” (UNIVERSITY OF MARYLAND, BALTIMORE, priority 2022, published 2025).

Target: DvH-FDH2 (Nitratidesulfovibrio vulgaris (Desulfovibrio vulgaris Hildenborough), UniProt Q728X0)
Test: Effect of sodium azide / sodium nitrate on PES/DCPIP reduction by DvH-FDH2
Type: biochemical
Conditions: anaerobic and aerobic, 4-parameter sigmoidal fit

For `[N-]=[N+]=[N-]`, which IC50 is on record?
The IC50 was 800 µM.
